Experimental findings from PubChem BioAssay (NCI) are described below.

Holding throughout (experiment): NCI-60 one-dose screen, 48 h (100 = growth as untreated, 0 = no growth, -100 = all killed)
What all share (details): 10 µM

In experiment [1] the test system is SK-MEL-2 melanoma.
Experiment [2] has as its system SN12C renal.
Experiment [3] relates to UO-31 renal.
The test system of experiment [4] is TK-10 renal.
Experiment [5] concerns ACHN renal.
In experiment [6] the test system is CAKI-1 renal.
In experiment [7] the test system is A498 renal.
Experiment [8] concerns HL-60(TB) leukemia.
In experiment [9] the test system is MOLT-4 leukemia.
Experiment [10] deals with SR leukemia.
Experiment [11] relates to RPMI-8226 leukemia.
Experiment [12] deals with OVCAR-8 ovarian.
Experiment [13] concerns OVCAR-5 ovarian.
The test system of experiment [14] is OVCAR-4 ovarian.
The test system of experiment [15] is SK-OV-3 ovarian.
Experiment [16] has as its system IGROV1 ovarian.
Experiment [17] deals with OVCAR-3 ovarian.
Experiment [18] has as its system EKVX NSCLC.
The subject of experiment [19] is CCRF-CEM leukemia.
Experiment [20] concerns HS 578T breast.

Molecules are shown by their SMILES. Several values for one entry are separate records, joined by “and”; a condition that tells them apart may be missing. Equal values may be shown once. Only a part is listed here, and it is no random draw.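 Growth was measured after 48 h exposure to one concentration of compound in 96-well plates. Values under 10 count as active.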 Activity calls are given as the source filed them.

With `O=Cc1ccc(N(CCCl)CCCl)cc1Cl`, the growth is inactive: 81.2% in [1]; inactive: 79.7% in experiment [2]; inactive: 75.8% in [3]; active: -42.9% in experiment [4]; inactive: 95.6% in [5]; inactive: 34.7% in experiment [6]. Besides, the growth was active: -89.1% in experiment [7]; inactive: 68.6% in [8]; inactive: 71.2% in experiment [9]; inactive: 67.5% in experiment [10]; inactive: 39.7% in experiment [11]; inactive: 86.1% in experiment [12]. The growth in [13] was active: -7.77%; in experiment [14], inactive: 18.9%; in [15], inactive: 64.9%; in experiment [16], inactive: 12.2%; in [17], inactive: 26.9%.

For the compound `Cc1ccccc1CN(CCCl)CCCl`, the growth in experiment [1] is inactive: 106%; in experiment [18], inactive: 103%; in [2], inactive: 103%; in [3], inactive: 85.5%; in experiment [4], inactive: 110%; in experiment [5], inactive: 98.3%. For the same compound, the growth in experiment [19] was inactive: 94.7%; in experiment [11] it was inactive: 100%; in [12] it was inactive: 93.9%; in experiment [13], inactive: 105%; in [14] it was inactive: 98.6%; in [15], inactive: 97.7%. The growth in [16] is inactive: 79.7%; in experiment [17] it was inactive: 94.1%.

With `C1CCNCC1.O=C(O)C(O)c1ccc(N(CCCl)CCCl)cc1` (stereo unspecified), the growth is inactive: 102% in [2]; inactive: 90.4% in experiment [3]; inactive: 103% in [4]; inactive: 98.4% in [5]; inactive: 103% in experiment [6]; inactive: 70.6% in [7]. Also, the growth is inactive: 90.8% in [8]; inactive: 90.1% in experiment [19]; inactive: 81.9% in experiment [9]; inactive: 75.7% in experiment [10]; inactive: 99.4% in experiment [11]; inactive: 109% in experiment [12]. The growth in experiment [13] was inactive: 102%; in [14], inactive: 115%; in experiment [15], inactive: 95.7%; in experiment [16] it was inactive: 91.1%; in experiment [17], inactive: 106%; in [20], inactive: 101%.

As for `CCCCOc1ccc(N(CCCl)CCCl)cc1`, the growth in [1] is inactive: 89.8%; in experiment [18], inactive: 109%; in experiment [2] it was inactive: 104%; in experiment [3] it was inactive: 91%; in experiment [4] it was inactive: 96.4%; in experiment [5], inactive: 114%. The growth in experiment [8] is inactive: 99.8%; in experiment [19] it was inactive: 98%; in experiment [9] it was inactive: 103%; in [10], inactive: 84.7%; in [11], inactive: 97%; in experiment [12] it was inactive: 102%. The growth in experiment [13] is inactive: 110%; in [14] it was inactive: 111%; in experiment [15], inactive: 109%; in [16], inactive: 102%; in experiment [17], inactive: 99.3%; in [20] it was inactive: 111%.

Consider `N#CC(C#N)=Cc1ccc2c(c1)OCO2`, for which the growth in experiment [1] was inactive: 112% and inactive: 102%; in [2], inactive: 104% and inactive: 97.1%; in experiment [3], inactive: 89.5% and inactive: 97.8%; in [4], inactive: 108%; in experiment [5], inactive: 97% and inactive: 103%; in experiment [6], inactive: 96.8% and inactive: 91.6%. The growth in experiment [7] was inactive: 95.5% and inactive: 86.6%; in [8], inactive: 115% and inactive: 109%; in [19], inactive: 89.5%; in experiment [9], inactive: 97.3% and inactive: 97.2%; in experiment [10], inactive: 89.3% and inactive: 90%; in [11], inactive: 101% and inactive: 121%. Further, the growth in experiment [12] is inactive: 97.7% and inactive: 100%; in [13], inactive: 99.7% and inactive: 100%; in [14] it was inactive: 107% and inactive: 100%; in [15] it was inactive: 105% and inactive: 94.1%; in [16] it was inactive: 96.6% and inactive: 110%; in experiment [17], inactive: 111% and inactive: 108%. In [20], the growth was inactive: 104% and inactive: 98.7%.

In the case of `CC1(C)NC(=O)N(CCN(CCCl)CCCl)C1=O`, the growth is inactive: 101% in experiment [1]; inactive: 110% in [2]; inactive: 86.9% in experiment [3]; inactive: 96.4% in [5]; inactive: 110% in experiment [6]; inactive: 112% in experiment [7]. The growth in [8] was inactive: 103%; in experiment [9], inactive: 102%; in experiment [12] it was inactive: 100%; in experiment [13], inactive: 102%; in experiment [14] it was inactive: 100%; in experiment [15] it was inactive: 102%. For the same compound, the growth in [16] was inactive: 97.6%; in experiment [17], inactive: 112%; in experiment [20] it was inactive: 125%.
